Data taken from patent US4526891A, “Substituted alkyl amine derivatives of 6,11-dihydro-11-oxodibenz[b,e]oxepins” (Hoechst Roussel Pharmaceuticals Inc., priority 1983, dated 1985).

Test system: 2-phenyl-1,4-benzoquinone-induced writhing
Test: 2-phenyl-1,4-benzoquinone-induced writhing test in mice (analgesia)
Type: in vivo
Settings: oral dose

Cl.O.O=C1c2ccccc2COc2ccc(CCN3CCC4(CC3)C(=O)NCN4c3ccccc3)cc21
ED50 (dosage which exhibits 50% inhibition of writhing): 8.4 mg/kg of body weight
